JMJD2E inh: JMJD2E (human) inhibition; B2RXH2; JMJD2E catalytic domain, FDH-coupled NADH fluorescence (FDH is formaldehyde dehydrogenase); Potency, µM (titrated, usually from 57.1 µM), inactives show top-dose activity change, negative = inhibition, most hits filed as inhibitors; 230,000 compounds, 1.6% hits; AID 2147; active = well fitted inhibition curve with a large enough effect, not every such curve was filed as active; inconclusive = small, poorly fitted or top-dose-only effect, or another doubt; inactive = no such curve, though single readings can be large or run the other way;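 also: potency is read from the fitted curve at half-maximal effect; 0% = wells with enzyme and -100% = buffer wells without enzyme; nearly all actives have a fitted effect of over 50% in size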
miR-21 reporter: miR-21 reporter, rising signal | HeLa miR-21 FLuc reporter, luciferase, 48 h | Potency, µM (top dose mostly 38.3 µM), inactives show at the top dose reporter change, positive = more light | 340,000 tested, under 10 active | AID 2288; active = well fitted rising curve with a large enough effect; inconclusive = small, poorly fitted or top-dose-only effect; inactive = no such curve, though single readings can be large or run the other way;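 further: % of control where 0% means no effect; miR-21 action dims this reporter so a rising signal means less miR-21 action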
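HeLa cells endogenously expressing miR-21, stably carrying CMV-driven firefly luciferase with a downstream miR-21 binding site, 2000 cells/well. Titrations up to approximately 40 uM, 48 hours; luciferase luminescence read.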
G9a block: blocks human histone lysine methyltransferase G9a. Q96KQ7. G9a H3K9 monomethylation, AlphaScreen, 2 h. Potency, µM (titrated, usually from 102 µM), without a hit: at the top dose activity, negative = inhibition, usual class: inhibitors. 350,000 compounds, 8.8% hits. AID 504332; also: potency is read from the fitted curve at half-maximal effect; % is scaled to controls: 0 for no effect and ±100 for the full control effect; nearly all actives have a fitted effect of over 75% in size
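AlphaScreen detection with an anti-monomethyl H3K9 antibody quantified product after a 2 h room-temperature reaction containing 500 nM biotinylated H3K9 peptide, 20 µM SAM and 20 nM enzyme, which had been preincubated 15 min with compound.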
ALDH1A1 inh: inhibitors of human aldehyde dehydrogenase 1A1; P00352; Purified ALDH1A1, NADH fluorescence, propionaldehyde substrate; Potency, µM (doses to about 75.3 µM), for the others: at the highest dose activity, negative = inhibition, actives largely listed as inhibitors; 220,000 compounds, 7.3% hits; AID 1030; active = well fitted inhibition curve with a large enough effect, not every such curve was filed as active; inconclusive = small, poorly fitted or top-dose-only effect, or another doubt; inactive = no such curve, though single readings can be large or run the other way;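 also: potency is read from the fitted curve at half-maximal effect; plate controls were no enzyme wells and a reference inhibitor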
LMNA splice mod: LMNA splicing modulation; HeLa LMNA splicing GFP/RFP minigene ratio, 48 h; Potency, µM (highest dose often 46.1 µM), inactives show at the highest dose ratio change, negative = inhibition, hits mostly inhibitors; 200,000 compounds, 0.01% hits; active = well fitted inhibition curve with a large enough effect in the signal ratio, with a control signal flat, not every such curve was filed as active; inconclusive = small, poorly fitted or top-dose-only effect, or effect the other way, or a change in a side signal; the % refers to the signal ratio; also: potency is read from the fitted curve at half-maximal effect; % is scaled to controls: 0 for no effect and ±100 for the full control effect
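S3 HeLa cells stably expressing lamin A-EGFP splicing minigene plus DsRed2, 600 cells/well, 48 h compound exposure at 37C. Laser-scanning cytometry; analysed as GFP (500-530 nm)/RFP (575-640 nm) total intensity ratio; 0.5% DMSO vehicle.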
Sfp PPTase inh: inhibitors of Bacillus subtilis Sfp phosphopantetheinyl transferase | Biochemical Sfp PPTase activity, qHTS | AID 1490 | Potency, µM, for the others: max response, negative = inhibition, hits mostly inhibitors | actives 3.5% (n = 310,000) | Q9F4F7; active = well fitted inhibition curve with a large enough effect; inconclusive = small, poorly fitted or top-dose-only effect, or another doubt; inactive = no such curve, though single readings can be large or run the other way;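 also: the enzyme is Sfp with the accession as filed and its product quenches rhodamine fluorescence; potency is read from the fitted curve at half-maximal effect; 0% = enzyme reaction without inhibitor and -100% = no enzyme wells; top concentration of the series not given in the record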
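With Hepes-Na pH 7.6 buffer containing 10 mM MgCl2, Sfp (15 nM) modified BHQ-2-YbbR (12.5 uM) using rhodamine-CoA (5 uM). Two reads 30 minutes apart at 525/598 nm yielded each well's rate.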
An asterisk follows results filed as active; ? = inconclusive; . = not tested or not shown; [ ] = dose if it differs, or a comment. Only some compounds are listed: those with a hit (about 13% of all), similar ones and a draw of the others. Unless noted, calls follow the shape of the dose curve; as a rule, active = well fitted curve in the direction sought with a large enough effect; inconclusive = small, poorly fitted or top-dose-only effect, or another doubt; inactive = no such curve, though single readings can be large; an effect the other way counts as inactive or inconclusive.

(1) O=S(=O)(c1ccccc1)N1CCC2(CCN(c3ccc(-c4ccccc4)cc3)CC2)CC1
(2) CCc1ccccc1NC(=O)C(NS(=O)(=O)c1ccc2c(c1)CCC(=O)N2)c1ccccc1 (stereo not given)
(3) Cc1cc(NC(=O)c2ccc(C#N)cc2)on1
(4) Cc1ccc(-n2c(=O)c3oc4ccccc4c3n(Cc3ccccc3F)c2=O)cc1C
(5) Cc1ccc(S(=O)(=O)N(CC(=O)Nc2cc(C)ccc2C)C(=O)N2CCN(C)CC2)cc1
(6) Cc1ccc(C)c(NC(=O)CN(C)C(C)C(=O)N2CC(C)CC(C)C2)c1 (stereo not given)

assay / compound	1	2	3	4	5	6
JMJD2E inh	.	.	3%	.	.	.
miR-21 reporter	.	5%	-17%	-4%	.	.
G9a block	-5%[12.7 µM]	5%[59 µM]	-27%	5%[59 µM]	6%	56µM*
ALDH1A1 inh	?	.	?	.	.	.
LMNA splice mod	.	.	.	.	.	.
Sfp PPTase inh	22%	.	-4%	.	.	.

Single values from the list:
entry 2 @ G9a block = 5%[59 µM]
entry 1 @ Sfp PPTase inh = 22%
entry 3 @ Sfp PPTase inh = -4%

More compounds
(7) COc1cccc(NC(=O)Cn2c(=O)n(-c3ccccc3)c(=O)c3c4c(sc32)CCCC4)c1
(8) CC(C)c1ccc(O)c(N)c1
(9) CCC(C)c1ccccc1O (stereo not given)
(10) CC(C)(C)c1ccc(O)c(N)c1
(11) CCC(C)c1ccc(O)c(N)c1 (stereo not given)
(12) COc1ccc(S(=O)(=O)NCC(c2ccco2)S(=O)(=O)c2ccc(C)cc2)cc1C (stereo not given)

assay / compound	7	8	9	10	11	12
JMJD2E inh	.	-16%	.	0%	-17%	.
miR-21 reporter	-4%	-15%	.	-6%	-27%	0%
G9a block	-4%[59 µM]	1.4µM*	-1%[0.501 µM]	?	2.8µM*	2%[59 µM]
ALDH1A1 inh	.	28µM*	3%	?	25µM*	.
LMNA splice mod	.	-8%	.	2%	-14%	-22%[46 µM]
Sfp PPTase inh	.	11µM*	.	?	50µM*	.

(13) CCc1ccc(Nc2n[n+](-c3ccccc3)c(-c3c(Cl)cccc3Cl)s2)cc1
(14) CCc1ccc(Nc2n[n+](-c3ccccc3)c(-c3ccc(N(CC)CC)cc3)s2)cc1
(15) COc1ccc2ccccc2c1-c1sc(Nc2ccccc2)n[n+]1-c1ccc(F)cc1
(16) CCN(CC)c1ccc(-c2sc(Nc3ccccc3)n[n+]2-c2ccc(F)cc2)cc1
(17) CN(C)c1ccc(-c2sc(Nc3ccccc3)n[n+]2-c2ccc(F)cc2)cc1
(18) CCc1ccc(CNC(=O)CCSCc2ccccc2F)cc1

assay / compound	13	14	15	16	17	18
JMJD2E inh	.	.	.	.	.	.
miR-21 reporter	?	24%	?	6%	-3%	-3%
G9a block	14µM*	13µM*	50µM*	45µM*	.	20%[59 µM]
ALDH1A1 inh	.	.	.	.	.	.
LMNA splice mod	.	.	.	.	.	-12%[46 µM]
Sfp PPTase inh	71µM*	50µM*	-16%	56µM*	-10%	.

(19) N#Cc1ccc(OCC(=O)OCC(=O)Nc2sccc2C(N)=O)cc1
(20) O=C(CCNC(=O)c1ccc(Br)cc1)NNC(=O)c1ccccc1O
(21) CCc1ccc(Nc2n[n+](-c3ccccc3)c(/C=C/c3ccccc3)s2)cc1
(22) Cc1ccc(S(=O)(=O)c2cn(CC(=O)Nc3ccccc3)c3cc4c(cc3c2=O)OCO4)cc1
(23) CC(C)OC(=O)CC(=O)c1sc2nc3c(cc2c1N)CN(C)CC3
(24) Nc1c(C(=O)Nc2ccccc2F)sc2nc3c(cc12)CCCCCC3

assay / compound	19	20	21	22	23	24
JMJD2E inh	.	.	.	.	?	.
miR-21 reporter	.	.	7%	2%	2%	-15%
G9a block	10%[12.7 µM]	-1%	40µM*	-5%[59 µM]	?	-3%[59 µM]
ALDH1A1 inh	.	.	.	.	?	.
LMNA splice mod	.	.	.	.	0%	.
Sfp PPTase inh	.	.	50µM*	.	45µM*	.

(25) CN1CCc2nc3sc(C(=O)Nc4cccc(C#N)c4)c(N)c3cc2C1
(26) Cc1cccc(NC(=O)c2sc3nc4c(cc3c2N)CN(Cc2ccccc2)CC4)c1
(27) CN1CCc2nc3sc(C(=O)Nc4c(F)cccc4F)c(N)c3cc2C1
(28) O=C(CC1NCCNC1=O)Nc1ccc(F)c(Cl)c1 (stereo not given)
(29) Cc1ccc(NC(=O)CCN2CCN(C/C=C/c3ccccc3)CC2)cc1C
(30) CN1CCN(CCC(=O)Nc2ccccc2)CC1

assay / compound	25	26	27	28	29	30
JMJD2E inh	.	.	.	.	-3%	.
miR-21 reporter	-40%	3%	-13%	-1%	5%	1%
G9a block	16µM*	-2%[59 µM]	16µM*	10%[59 µM]	-2%[2.33 µM]	.
ALDH1A1 inh	.	.	.	.	14µM*	.
LMNA splice mod	.	.	.	.	?	.
Sfp PPTase inh	.	.	.	.	89µM*	9%

(31) CN1CCN(CCC(=O)Nc2ccc(C3CCCC3)cc2)CC1
(32) O=C(CCN1CCCC1)Nc1ccc(Br)cc1
(33) Cc1ccc(NC(=O)CCN2CCN(C/C=C/c3ccccc3)CC2)cc1
(34) CN1CCN(CCC(=O)Nc2ccc(Cl)cc2)CC1
(35) CC(=O)Nc1ccc(CN2CCCN(C)CC2)cc1
(36) CC(=O)Nc1ccc(CN2CCN(C3CCCC3)C(CCO)C2)cc1 (stereo not given)

assay / compound	31	32	33	34	35	36
JMJD2E inh	7%	1%	14%	.	.	1%
miR-21 reporter	-8%	-5%	1%	-1%	-1%	-1%
G9a block	32µM*	20µM*	?	11µM*	20µM*	.
ALDH1A1 inh	?	-1%	5%	.	.	6%
LMNA splice mod	-3%[9.22 µM]	-6%	-13%	.	.	.
Sfp PPTase inh	7%	-4%	12%	.	-29%	-3%

(37) O=C(CN1C(=O)CCC1=O)Nc1ccc(Br)cc1
(38) N#Cc1c(-c2ccccc2)[nH]c(=S)[nH]c1=O
(39) COC(=O)C1=C(C)NC=C([N+](=O)[O-])C1c1ccc(OC)cc1 (stereo not given)
(40) CCOC(=O)C1=C(C)NC(C)=C(C(=O)OCC)C1c1ccc(OC)cc1
(41) CCOC(=O)C1=C(c2cccc(F)c2)NC(=S)NC1C (stereo not given)
(42) Cc1cccc2cc(-c3nc4ccc(C(=O)O)cc4[nH]3)c(=O)oc12

assay / compound	37	38	39	40	41	42
JMJD2E inh	4%	2%	1%	?	1%	.
miR-21 reporter	13%	-2%	4%	2%	5%	-21%
G9a block	-19%[59 µM]	-42%[12.7 µM]	-40%[59 µM]	21%[59 µM]	-31%[59 µM]	50µM*
ALDH1A1 inh	2.5µM*	-2%	-10%	?	1.6µM*	.
LMNA splice mod	-1%	8%	?	?	?	.
Sfp PPTase inh	11%	50µM*	14µM*	5%	8%	15%

(43) Cc1c(C(=O)Nc2ccccc2F)sc2ncn(CC(=O)N3CCOCC3)c(=O)c12
(44) CCOc1ccc(NC(=O)C2CCN(S(=O)(=O)c3c(C)noc3/C=C/c3cccs3)CC2)cc1
(45) CC1=C(C(=O)Nc2ccc(C)cc2C)C(c2ccccc2[N+](=O)[O-])n2ncc(C(=O)Nc3ccccc3)c2N1 (stereo not given)
(46) COc1cc(OC)c(NS(=O)(=O)c2coc(C(N)=O)c2)cc1Cl
(47) CCOC(=O)COc1ccc(S(=O)(=O)NCCC2=CCCCC2)cc1
(48) Cc1ccc(S(=O)(=O)NCCC2=CCCCC2)cc1

assay / compound	43	44	45	46	47	48
JMJD2E inh	.	.	.	0%	2%	.
miR-21 reporter	-6%	1%	-12%	9%	-4%	.
G9a block	25%	-33%[59 µM]	7.1µM*	71µM*	?	-1%
ALDH1A1 inh	.	.	.	1%	32µM*	.
LMNA splice mod	.	.	-7%[46 µM]	12%	-7%	.
Sfp PPTase inh	9%	.	.	-4%	3%	.

(49) O=C(NC(=S)NCCC1=CCCCC1)c1ccccc1Br
(50) COC(=O)c1cccc(NC(=S)NCCC2=CCCCC2)c1
(51) COC(=O)c1ccc(NC(=S)NCCC2=CCCCC2)cc1
(52) O=C(COC(=O)c1ccccc1Br)NCCC1=CCCCC1
(53) COc1ccc(CC(=O)NCCC2=CCCCC2)cc1

assay / compound	49	50	51	52	53
JMJD2E inh	5%	1%	12%	3%	5%
miR-21 reporter	-18%	19%	-7%	-31%	-21%
G9a block	.	93%[59 µM]	43%[0.501 µM]	26%	-8%
ALDH1A1 inh	7.1µM*	28µM*	?	-7%	24µM*
LMNA splice mod	.	?	-9%[0.0737 µM]	-5%[46 µM]	-4%[46 µM]
Sfp PPTase inh	?	24%	14%	7%	14%

Reprinted at random: three compounds from above
(51) COC(=O)c1ccc(NC(=S)NCCC2=CCCCC2)cc1
(52) O=C(COC(=O)c1ccccc1Br)NCCC1=CCCCC1
(49) O=C(NC(=S)NCCC1=CCCCC1)c1ccccc1Br

assay / compound	51	52	49
JMJD2E inh	12%	3%	5%
miR-21 reporter	-7%	-31%	-18%
G9a block	43%[0.501 µM]	26%	.
ALDH1A1 inh	?	-7%	7.1µM*
LMNA splice mod	-9%[0.0737 µM]	-5%[46 µM]	.
Sfp PPTase inh	14%	7%	?

Screens from PubChem.
